Paper PMC8163975 (The Journal of Biological Chemistry, 2021)

Molecular target: T1, HRAS, mGppNHp-bound (human, UniProt P01112-1 1-189)
T1 construct: human HRAS; Loaded with mGppNHp, a fluorescent non-hydrolysable GTP analogue; That the RAS proteins were the pGEX (GST) constructs is surmised; also called HRAS1; p21HRAS
Assay: fluorescence polarisation; increasing concentrations of the RA/RB domain as MBP fusion protein (0.002-300 µM; or MBP alone) titrated to mGppNHp-bound RAS protein (1 µM); 30 mM Tris-HCl pH 7.4, 100 mM NaCl, 5 mM MgCl2, 3 mM DTT; Kd from a quadratic ligand-binding equation
Settings: both partners purified

- Kd: 140 µM
B1: RASSF7 RA domain, MBP fusion protein (domain or fragment, human, UniProt Q02833 6-89, looked up)
chain: AAMELKVWVDGIQRVVCGVSEQTTCQEVVIALAQAIGQTGRFVLVQRLREKERQLLPQECPVGAQATCGQFASDVQFVLRRTGP
notes: RASSF7 RA domain, aa 6-89 of Q02833
